Data reported in US20260207703A1 (priority 2023, published 2026).

How the values were obtained:
[1] = tested on: male Sprague Dawley rats; experiment: Opioid-induced respiratory depression (OIRD) after IP fentanyl and/or xylazine, reversal by treatment; details: for reversal of opioid induced respiratory depression elicited by combined fentanyl+xylazine: fentanyl 0.5 mg/kg + xylazine 1 mg/kg IP, FIG. 1D
[2] = tested on: experimental rats; details: lethal dose of fentanyl 1.3 mg/kg; oxytocin 200 nmol/kg IP; FIG. 3A
[3] = tested on: unrestrained and freely moving animals; experiment: Apneas and hypopneas evoked by fentanyl, whole-body plethysmography

Compound	reversal of opioid induced respiratory depression elicited by combined fentanyl+xylazine [1]	survival [2]	incidence of apneas evoked by fentanyl ([3]; FIG. 2A)	incidence of hypopneas evoked by fentanyl ([3]; FIG. 2A)	diminishing the occurrence of apneas evoked by fentanyl, compared to naloxone ([3]; FIG. 2B)	reversal of opioid induced respiratory depression elicited by combined fentanyl+xylazine ([1]; listed as oxytocin)	reversal of OIRD ([1]; oxytocin 200 nmol/kg IP 10-15 minutes after fentanyl 0.5 mg/kg IP, vs untreated controls)	breathing frequency ([1]; oxytocin 200 nmol/kg IP 10-15 minutes after fentanyl, vs untreated controls, FIG. 1A)	tidal volume ([1]; oxytocin 200 nmol/kg IP 10-15 minutes after fentanyl, vs untreated controls, FIG. 1B)	minute ventilation ([1]; oxytocin 200 nmol/kg IP 10-15 minutes after fentanyl, vs untreated controls, FIG. 1C)	respiratory depression elicited ([1]; IP fentanyl 0.5 mg/kg and xylazine 1 mg/kg alone or in combination, 10-15 minutes post-injection)
C=CCN1CC[C@]23c4c5ccc(O)c4O[C@H]2C(=O)CC[C@@]3(O)[C@H]1C5 [Naloxone]	only partially effective	–	–	–	–	–	–	–	–	–	–
CC[C@H](C)[C@@H]1NC(=O)[C@H](Cc2ccc(O)cc2)NC(=O)[C@@H](N)CSSC[C@@H](C(=O)N2CCC[C@H]2C(=O)N[C@@H](CC(C)C)C(=O)NCC(N)=O)NC(=O)[C@H](CC(N)=O)NC(=O)[C@H](CCC(N)=O)NC1=O	potently reversed	increased the survival	significantly diminished	significantly diminished	significantly potent compared to naloxone	potently reverses	significantly reversed OIRD	increased	increased	increased	–
xylazine	–	–	–	–	–	–	–	–	–	–	significantly elicited respiratory depression
